Measured values: patent publication US20210024604A1, “NOVEL INSULIN DERIVATIVES” (Novo Nordisk A/S, priority 2009, published 2021)

The chains behind the UniProt entries cited, without tags or fusion partners. Residues count along the entry.
UniProt P02768, 25-609: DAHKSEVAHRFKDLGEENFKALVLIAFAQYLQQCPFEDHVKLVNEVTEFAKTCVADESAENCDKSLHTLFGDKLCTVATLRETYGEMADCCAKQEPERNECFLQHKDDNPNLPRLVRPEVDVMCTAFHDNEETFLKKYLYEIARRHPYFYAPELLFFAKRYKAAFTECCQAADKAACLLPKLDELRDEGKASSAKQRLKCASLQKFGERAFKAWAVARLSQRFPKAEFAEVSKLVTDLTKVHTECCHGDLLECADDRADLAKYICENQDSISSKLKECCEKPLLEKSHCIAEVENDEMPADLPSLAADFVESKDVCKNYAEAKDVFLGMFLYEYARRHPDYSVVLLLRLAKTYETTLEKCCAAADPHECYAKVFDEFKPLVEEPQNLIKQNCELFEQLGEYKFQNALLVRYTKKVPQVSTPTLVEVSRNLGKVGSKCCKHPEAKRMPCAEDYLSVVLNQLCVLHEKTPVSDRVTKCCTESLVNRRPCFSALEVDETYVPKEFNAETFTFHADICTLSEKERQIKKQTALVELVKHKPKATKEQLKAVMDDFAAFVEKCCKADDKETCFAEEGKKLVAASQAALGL

Biological target: T1, human serum albumin (Homo sapiens, UniProt P02768)
T1 construct: purchased Chromtech Inc HSA 50.3 column
Test: Elution from immobilized human serum albumin column; shift in retention time with glucose in eluent
Format: binding
Conditions: retention time with no glucose vs 50 mM glucose in eluent; HSA column; marked *: eluted with a gradient to 70% buffer B
Method: The glucose sensitivity of insulin albumin binding can be determined by tuning glucose levels in the elution buffer and determine the shift in retention time as a function of the glucose concentration, table 1 below.
T 37° C., flow 0.7 mL/min, 20 uL of 10 uM samples, UV monitor 220 nm.
Compounds marked with an asterix were eluted with a gradient to 70% buffer B.

Δ Rt: 1.0 min
Substance: A22M-15-(3,5-Diboronobenzoylamino)pentadecanoyl B29M-15-(3,5-diboronobenzoylamino)pentadecandioyl A14E A22K B25H desB30 Human Insulin [Example 15]
